{"source": "patent US4758555A", "about": "“Method for treating convulsions and epilepsy with organic copper compounds” (priority 1986, dated 1988)", "conditions": "in vivo", "data": [{"smiles": "O=C(O)c1ccccc1[O-].O=C(O)c1ccccc1[O-].[Cu+2]", "note": "[Cu(II)(salicylate)2]", "values": [{"measurement": "LD50 relative to ED50 for prevention of Metrazol-induced seizures", "value": "over 10 times"}]}]}
